{
  "source": "paper PMC5641599",
  "about": "(Molecular Metabolism, 2017)",
  "origin": "cited, not measured here",
  "key": {"[1]": {"target": "MC4R variants (Homo sapiens, UniProt P32245, I170V)", "details": "MC4R I170V, cited from earlier work"}, "[2]": {"target": "MC4R variants (Homo sapiens, UniProt P32245, S94N)", "details": "MC4R S94N; ref Wang ZQ, Biochim Biophys Acta, 2011; cited from earlier work"}, "[3]": {"target": "MC4R variants (Homo sapiens, UniProt P32245, I251L)", "details": "MC4R I251L; ref Xiang Z, Biochemistry, 2006; cited from earlier work"}, "[4]": {"target": "MC4R variants (Homo sapiens, UniProt P32245, I102S)", "details": "MC4R I102S; ref Xiang Z, Biochemistry, 2006; cited from earlier work"}, "[5]": {"target": "MC4R variants (Homo sapiens, UniProt P32245, N240S)", "details": "MC4R N240S; ref Xiang Z, Biochemistry, 2010; cited from earlier work"}, "[6]": {"target": "MC4R variants (Homo sapiens, UniProt P32245, G231V)", "details": "MC4R G231V; ref Wang ZQ, Biochim Biophys Acta, 2011; cited from earlier work"}, "[7]": {"target": "MC4R variants (Homo sapiens, UniProt P32245, D146N)", "details": "MC4R D146N; ref Wang ZQ, Biochim Biophys Acta, 2011; cited from earlier work"}, "[8]": {"target": "MC4R variants (Homo sapiens, UniProt P32245, T112K)", "details": "MC4R T112K; COS-7 cell line; ref Hinney A, J Clin Endocrinol Metab, 2006; cited from earlier work"}, "[9]": {"target": "MC4R variants (Homo sapiens, UniProt P32245, P48S)", "details": "MC4R P48S; ref Xiang Z, Biochemistry, 2010; cited from earlier work"}, "[10]": {"target": "MC4R variants (Homo sapiens, UniProt P32245, T112M)", "details": "MC4R T112M; ref Xiang Z, Biochemistry, 2006; cited from earlier work"}, "[11]": {"target": "MC4R variants (Homo sapiens, UniProt P32245, Y157S)", "details": "MC4R Y157S; ref Xiang Z, Biochemistry, 2010; cited from earlier work"}, "[12]": {"target": "MC4R variants (Homo sapiens, UniProt P32245, S58C)", "details": "MC4R S58C; ref Xiang Z, Biochemistry, 2006; cited from earlier work"}, "[13]": {"target": "MC4R variants (Homo sapiens, UniProt P32245, T150I)", "details": "MC4R T150I; ref Xiang Z, Biochemistry, 2006; cited from earlier work"}, "[14]": {"target": "MC4R variants (Homo sapiens, UniProt P32245, A219V)", "details": "MC4R A219V; ref Xiang Z, Biochemistry, 2010; cited from earlier work"}, "[15]": {"target": "MC4R variants (Homo sapiens, UniProt P32245, H158R)", "details": "MC4R H158R; COS-7 cell line; ref Hinney A, J Clin Endocrinol Metab, 2006; cited from earlier work"}, "[16]": {"target": "MC4R variants (Homo sapiens, UniProt P32245, S30F)", "details": "MC4R S30F; ref Xiang Z, Biochemistry, 2006; cited from earlier work"}, "[17]": {"target": "MC4R variants (Homo sapiens, UniProt P32245, L250Q)", "details": "MC4R L250Q; ref Xiang Z, Biochemistry, 2006; cited from earlier work"}, "[18]": {"target": "MC4R variants (Homo sapiens, UniProt P32245, Q156R)", "details": "MC4R Q156R; COS-7 cell line; ref Hinney A, J Clin Endocrinol Metab, 2006; cited from earlier work"}, "[19]": {"target": "MC4R variants (Homo sapiens, UniProt P32245, V253I)", "details": "MC4R V253I; ref Xiang Z, Biochemistry, 2006; cited from earlier work"}, "[20]": {"target": "MC4R variants (Homo sapiens, UniProt P32245, I317V)", "details": "MC4R I317V; ref Xiang Z, Biochemistry, 2010; cited from earlier work"}, "[21]": {"target": "MC4R variants (Homo sapiens, UniProt P32245, R165Q)", "details": "MC4R R165Q; ref Xiang Z, Biochemistry, 2006; cited from earlier work"}, "[22]": {"target": "MC4R variants (Homo sapiens, UniProt P32245, C40Y)", "details": "MC4R C40Y; COS-7 cell line; ref Hughes DA, Hum Genet, 2009; cited from earlier work"}, "[23]": {"target": "MC4R variants (Homo sapiens, UniProt P32245, E308K)", "details": "MC4R E308K; ref Xiang Z, Biochemistry, 2010; cited from earlier work"}, "[24]": {"target": "MC4R variants (Homo sapiens, UniProt P32245, S191T)", "details": "MC4R S191T; COS-7 cell line; ref Hughes DA, Hum Genet, 2009; cited from earlier work"}, "[25]": {"target": "MC4R variants (Homo sapiens, UniProt P32245, I195S)", "details": "MC4R I195S; ref Wang ZQ, Biochim Biophys Acta, 2011; cited from earlier work"}, "[26]": {"target": "MC4R variants (Homo sapiens, UniProt P32245, R7H)", "details": "MC4R R7H; ref Xiang Z, Biochemistry, 2010; cited from earlier work"}, "[27]": {"target": "MC4R variants (Homo sapiens, UniProt P32245, C271R)", "details": "MC4R C271R, cited from earlier work"}},
  "note": "Where two headings read alike, the source gives them in different places.",
  "data": [
    {"substance": "β-MSH", "values": [
      {"measurement": "cAMP EC50 - Ligand no.2 (WT fold)", "setting": "[1]; COS-7 cell line, ref Hughes DA, Hum Genet, 2009", "result": 3.80, "unit": "WT fold"},
      {"measurement": "cAMP EC50 - Ligand no.2 (WT fold)", "setting": "[1]; ref Xiang Z, Biochemistry, 2006", "result": 1.38, "unit": "WT fold"},
      {"measurement": "cAMP EC50 (WT fold)", "setting": "[2]", "result": 2.26, "unit": "WT fold"},
      {"measurement": "cAMP EC50 - Ligand no.2 (WT fold)", "setting": "[3]", "result": 1.00, "unit": "WT fold"},
      {"measurement": "cAMP EC50 (WT fold)", "setting": "[4]", "result": 357.14, "unit": "WT fold"},
      {"measurement": "cAMP EC50 - Ligand no.2 (WT fold)", "setting": "[5]", "result": 1.17, "unit": "WT fold"},
      {"measurement": "cAMP EC50 - Ligand no.2 (WT fold)", "setting": "[6]", "result": 0.55, "unit": "WT fold"},
      {"measurement": "cAMP EC50 - Ligand no.2 (WT fold)", "setting": "[7]", "result": 0.15, "unit": "WT fold"},
      {"measurement": "cAMP EC50 (WT fold)", "setting": "[8]", "result": 0.40, "unit": "WT fold"},
      {"measurement": "cAMP EC50 (WT fold)", "setting": "[9]", "result": 2.47, "unit": "WT fold"},
      {"measurement": "cAMP EC50 - Ligand no.2 (WT fold)", "setting": "[10]", "result": 0.29, "unit": "WT fold"},
      {"measurement": "cAMP EC50 - Ligand no.2 (WT fold)", "setting": "[11]", "result": 560.00, "unit": "WT fold"},
      {"measurement": "cAMP EC50 (WT fold)", "setting": "[12]", "result": 36.43, "unit": "WT fold"},
      {"measurement": "cAMP EC50 - Ligand no.2 (WT fold)", "setting": "[13]", "result": 15.55, "unit": "WT fold"},
      {"measurement": "cAMP EC50 - Ligand no.2 (WT fold)", "setting": "[14]", "result": 14.53, "unit": "WT fold"},
      {"measurement": "cAMP EC50 - Ligand no.2 (WT fold)", "setting": "[15]", "result": 0.11, "unit": "WT fold"},
      {"measurement": "cAMP EC50 - Ligand no.2", "setting": "[16]", "result": 0.69, "unit": "WT fold"},
      {"measurement": "cAMP EC50 - Ligand no.2 (WT fold)", "setting": "[17]", "result": 8.45, "unit": "WT fold"},
      {"measurement": "cAMP EC50 - Ligand no.2 (WT fold)", "setting": "[18]", "result": 0.57, "unit": "WT fold"},
      {"measurement": "cAMP EC50 - Ligand no.2 (WT fold)", "setting": "[19]", "result": 1.07, "unit": "WT fold"},
      {"measurement": "cAMP EC50 (WT fold)", "setting": "[20]", "result": 2.00, "unit": "WT fold"},
      {"measurement": "cAMP EC50 - Ligand no.2 (WT fold)", "setting": "[21]", "result": 15.02, "unit": "WT fold"},
      {"measurement": "cAMP EC50 - Ligand no.2", "setting": "[22]", "result": 1.90, "unit": "WT fold"},
      {"measurement": "cAMP EC50 (WT fold)", "setting": "[23]", "result": 2.70, "unit": "WT fold"},
      {"measurement": "cAMP EC50 - Ligand no.2 (WT fold)", "setting": "[24]", "result": 1.00, "unit": "WT fold"},
      {"measurement": "cAMP EC50 - Ligand no.2 (WT fold)", "setting": "[25]", "result": 1.32, "unit": "WT fold"},
      {"measurement": "cAMP EC50 - Ligand no.2", "setting": "[26]", "result": 0.60, "unit": "WT fold"},
      {"measurement": "cAMP EC50 - Ligand no.2 (WT fold)", "setting": "[27]; COS-7 cell line, ref Tarnow P, J Biol Chem, 2003", "result": 44.98, "unit": "WT fold"},
      {"measurement": "cAMP EC50 - Ligand no.2 (WT fold)", "setting": "[27]; ref Xiang Z, Biochemistry, 2010", "result": 1140.00, "unit": "WT fold"}
    ]}
  ]
}
